Source: paper PMC10899660, “Global fungal-host interactome mapping identifies host targets of candidalysin” (Nature Communications, 2024)

Key:
[1] = test system: A549 epithelial cells; experiment: Cell damage and cytokine secretion, A549 cells; format: cell-based
Description: Cells were deposited into 96-well plates and incubated at 37 °C with 5% CO2. Prior to the cell damage assay, cells were starved in serum-free medium overnight. Cytotoxicity LDH Assay Kit-WST (Dojindo, #CK12) was applied to determine the lactate dehydrogenase (LDH) activity released from cells that were damaged by candidalysin for 2 h or 4 h according to the manufacturer’s instructions.

[2] = molecular target: T1, Cyclin H (CCNH) (Homo sapiens, UniProt P51946); experiment: Surface plasmon resonance (SPR) on BIAcore; format: binding
T1 construct: purchased Sino Biological Inc. Lot; ME12NO2769 (a lot number; catalogue number not given); host or cells: E. coli
T1 sequence (P51946 1-323): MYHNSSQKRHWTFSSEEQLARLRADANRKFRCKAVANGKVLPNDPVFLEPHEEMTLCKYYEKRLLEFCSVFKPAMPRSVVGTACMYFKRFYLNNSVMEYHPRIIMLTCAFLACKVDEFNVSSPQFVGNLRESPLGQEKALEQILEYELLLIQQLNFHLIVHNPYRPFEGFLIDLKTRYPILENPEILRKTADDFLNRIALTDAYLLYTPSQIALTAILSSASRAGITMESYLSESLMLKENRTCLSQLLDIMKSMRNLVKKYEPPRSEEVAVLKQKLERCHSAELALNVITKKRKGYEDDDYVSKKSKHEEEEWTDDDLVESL
Description: Recombinant Cyclin H (CCNH) protein with a C-HIS tag (Lot. ME12NO2769, 38.46 kDa) was obtained from Sino Biological Inc. and stored at −80 °C. In short, the cyclin H (Homo sapiens) gene was amplified by PCR and cloned into an expression vector which was transformed into E. coli followed by the selection and establishment of high expression transformants. The protein was purified using immobilized metal ion affinity chromatography and dissolved in PBS (pH 7.4). SPR measurement was performed with Biacore T200 instrument (GE), at 25 °C, with a flow rate of 30 μL/min. CM5 sensor chips, HBS-EP running buffer and the Amine Coupling Kit, including 1-ethyl-3(3-dimethylaminopropyl) carbodiimide hydrochloride (EDC), N-hydroxysuccinimide (NHS), 1.0 M ethanolamine-HCl (pH 8.5) were purchased from GE. The binding properties of candidalysin to CCNH were evaluated upon immobilization of CCNH onto CM5 chip surface in flow cell 2 (FC-2) using Biacore Amine Coupling Kit according to the manufacturer’s instructions. CCNH was diluted to 20 μg/ml in acetate buffer (pH 4.0) in advance and immobilized on the CM5 Chip following the EDC/NHS protocol. The reached immobilized target level was 1200 RU. The reference flow cell (FC-1) was blank-immobilized following the templated procedure. BIAcore measurements were performed starting from a 1:1 serial dilution of candidalysin following the templated multicycle analysis (association time 120 s, dissociation time 150 s, flow 30 μL/min). The SPR measurement for Ece1-II, Ece1-IV, Ece1-V and human cathelicidin (Solarbio, CLP0454) to CCNH were performed with Biacore 8 K instrument (GE) by PBST running buffer, and the other conditions were the same.

[3] = test system: FaDu cells; experiment: Alkaline comet assay, FaDu cells; format: cell-based; settings: 10 µM, 4 h
Description: Alkaline comet analysis was performed with some modifications to evaluate DNA damage. Briefly, following the termination of the treatment, 1.5 × 10^4 cells were mixed with 180 μl 0.5% low-melting-point agarose. The mixture was spread on pre-coated slides with normal agarose (1.5% in PBS) and cooled on ice to solidify. The slides were immersed in pre-cooled lysis solution (2.5 M sodium chloride, 100 mM EDTA, 10 mM Tris, 1% Triton-X 100, and 10% DMSO, pH 10) at 4 °C for 1 h, and placed in a gel electrophoresis apparatus containing electrophoresis buffer (300 mM NaOH and 1 mM EDTA) for 20 min to unwind the DNA, followed by electrophoresis for 20 min at 25 V / 300 mA on ice. Slides were neutralized (0.4 M Tris-HCl, pH 7.5) for 15 min and stained with 4’,6-diamidino-2-phenylindole (DAPI, Beyotime, #C1002). The comet images, taken by fluorescence microscopy (Olympus), were analyzed using CASP 1.2.3b1.

[4] = test system: human ORFeome (n = 13,761); experiment: High-throughput enhanced yeast two-hybrid (HT-eY2H) screening of the human ORFeome; format: binding
Description: The screening of potential host gene targets was carried out using our previous protocol with appropriate modification. Briefly, this system is based on the reconstitution of a functional transcription factor for activation of HIS3 reporter in a cycloheximide (CHX)-sensitive manner through the interaction between two proteins: one fused to the DNA-binding domain (DB-X) and the other fused to the activation domain (AD-Y). The entry clone encoding candidalysin or other Ece1 peptides was generated by Gateway cloning and confirmed by variant identity through barcoding and Sanger sequencing. The entry clones were transferred by Gateway LR reactions into the HT-eY2H vector pDEST-AD expressing the yeast Gal4 activation domain fusion proteins (AD-Y). The AD-Y plasmids were then transformed into the haploid yeast Y8930 (MATα), with the genotype leu2–3,112 trp1–901 his3Δ200 ura3–52 gal4Δ gal80Δ GAL2::ADE2 GAL1::HIS3@LYS2 GAL7::lacZ@MET2cyh2^R, and selected on synthetic complete (SC) agar medium without leucine (SC-Leu) to generate Y2H bait strains. The prey strains expressing DB-X were transformed into the yeast Y8800, mating type MATα, with similar genotype as Y8930, and selected on SC medium without tryptophan (SC-Trp). The cells were then mated and spotted onto confirmative, selective and control agar plates including SC-Leu-Trp, SC-Leu-Trp-His and SC-Leu-His+CHX, respectively. PPIs were considered positive for activation of GAL1::HIS3 (i.e., growth to overcome 3AT inhibition) in a CHX-sensitive manner.

CC[C@H](C)[C@H](NC(=O)CNC(=O)[C@H](CCSC)NC(=O)[C@@H](NC(=O)[C@@H](NC(=O)CNC(=O)[C@@H](NC(=O)[C@@H](NC(=O)[C@@H](N)CO)[C@@H](C)CC)[C@@H](C)CC)[C@@H](C)CC)[C@@H](C)CC)C(=O)N[C@@H](CC(C)C)C(=O)NCC(=O)N[C@@H](CC(N)=O)C(=O)N[C@H](C(=O)N1CCC[C@H]1C(=O)N[C@@H](CCC(N)=O)C(=O)N[C@H](C(=O)N[C@H](C(=O)N[C@@H](CCC(N)=O)C(=O)N[C@H](C(=O)N[C@H](C(=O)N[C@@H](CCSC)C(=O)N[C@@H](CO)C(=O)N[C@H](C(=O)N[C@H](C(=O)N[C@@H](CCCCN)C(=O)N[C@@H](C)C(=O)N[C@@H](Cc1ccccc1)C(=O)N[C@@H](CCCCN)C(=O)NCC(=O)N[C@@H](CC(N)=O)C(=O)N[C@@H](CCCCN)C(=O)O)C(C)C)[C@@H](C)CC)[C@@H](C)CC)[C@@H](C)CC)[C@@H](C)CC)C(C)C)[C@@H](C)CC [Ece1-III] was tested, and the “cell damage and cytokine secretion” value [1] was “induced both cell damage and cytokine secretion”, the “binding to CCNH by SPR, in words” value ([2]; BIAcore, compared to Amp) was “strongest binding” and the “(-) lg (KD fold change)” value ([2]; SPR, KD relative to CCNH-Amp) was 3.561. For the same compound, the “Fold Change (KD)” value ([2]; SPR, KD relative to CCNH-Amp, listed as Clys) was 0.0002748 and 2.75E-04, the kon ([2]; SPR, binding to CCNH, association rate, read-out: Ka) was 99200 M⁻¹ s⁻¹ and the “Kd” value ([2]; SPR, binding to CCNH, dissociation rate) was 0.00171 s⁻¹. For the same compound, the Kd ([2]; SPR, binding to CCNH, column pK, row KD (M), read-out: pK of KD (converted)) was 1.72e-08 M, the “pK of Kd (/s)” value ([2]; SPR, binding to CCNH, column pK, row Kd (/s)) was 2.768 and the “incidence of double-strand DNA breaks (DSBs)” value [3] was “significantly increased”. The “human genes/proteins interacting with the peptide” value [4] was “PPP2CA, OR7C2, and OR7A10; also recorded: CCNH, GLRX3, and UBXN2B”, the “number of specific host interactors after removing the overlapped host interactors” value [4] was 8 and the “number of potential host interactors” value ([4]; human ORFeome n = 13,761) was 50. For the same compound, the “human genes/proteins interacting with the peptide” value ([4]; listed as candidalysin) was “IST1, CBWD6, and CBWD2; also recorded: ACD, PPP2CA, UBXN2B, CCNH, CDX1, RB1, SFI1, SPRED2, THPO, SPAG8, NEK6, IST1”.

Several values for one entry are separate records, joined by “and”; a condition that tells them apart may be missing. Equal values may be shown once. Entries after “also recorded” stand apart in the source; their conditions may differ. Read-outs that look alike come from different tables or passages of the source.
